Results taken from patent publication US7157487B2, “Vla-4 inhibitors” (Daiichi Pharmaceutical Co., Ltd., priority 2000, dated 2007).
pKi: −log10 of the molar value.

Chains of the proteins cited; added tags and fusions are not shown. Residues count along the entry.
UniProt P05556, 21-798 limits assumed: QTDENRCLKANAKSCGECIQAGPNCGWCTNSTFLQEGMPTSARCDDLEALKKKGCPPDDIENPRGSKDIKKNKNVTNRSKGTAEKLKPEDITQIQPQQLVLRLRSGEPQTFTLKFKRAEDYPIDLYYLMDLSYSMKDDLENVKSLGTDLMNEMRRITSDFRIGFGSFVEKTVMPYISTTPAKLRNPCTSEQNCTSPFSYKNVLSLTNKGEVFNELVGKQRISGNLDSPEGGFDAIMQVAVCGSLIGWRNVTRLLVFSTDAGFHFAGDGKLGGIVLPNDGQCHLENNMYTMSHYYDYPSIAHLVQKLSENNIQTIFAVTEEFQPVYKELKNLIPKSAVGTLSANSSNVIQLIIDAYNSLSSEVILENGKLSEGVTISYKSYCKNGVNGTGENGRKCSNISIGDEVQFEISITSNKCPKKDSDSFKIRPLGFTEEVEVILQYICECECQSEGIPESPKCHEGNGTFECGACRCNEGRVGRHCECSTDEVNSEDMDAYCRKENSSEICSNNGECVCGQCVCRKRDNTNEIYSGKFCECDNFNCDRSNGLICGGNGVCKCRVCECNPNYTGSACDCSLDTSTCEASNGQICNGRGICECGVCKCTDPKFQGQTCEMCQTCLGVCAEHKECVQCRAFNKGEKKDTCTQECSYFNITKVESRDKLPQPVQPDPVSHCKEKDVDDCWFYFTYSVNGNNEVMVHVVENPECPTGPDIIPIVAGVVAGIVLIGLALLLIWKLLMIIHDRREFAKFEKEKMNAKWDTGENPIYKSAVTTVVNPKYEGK
UniProt P13612, 34-1032 limits assumed: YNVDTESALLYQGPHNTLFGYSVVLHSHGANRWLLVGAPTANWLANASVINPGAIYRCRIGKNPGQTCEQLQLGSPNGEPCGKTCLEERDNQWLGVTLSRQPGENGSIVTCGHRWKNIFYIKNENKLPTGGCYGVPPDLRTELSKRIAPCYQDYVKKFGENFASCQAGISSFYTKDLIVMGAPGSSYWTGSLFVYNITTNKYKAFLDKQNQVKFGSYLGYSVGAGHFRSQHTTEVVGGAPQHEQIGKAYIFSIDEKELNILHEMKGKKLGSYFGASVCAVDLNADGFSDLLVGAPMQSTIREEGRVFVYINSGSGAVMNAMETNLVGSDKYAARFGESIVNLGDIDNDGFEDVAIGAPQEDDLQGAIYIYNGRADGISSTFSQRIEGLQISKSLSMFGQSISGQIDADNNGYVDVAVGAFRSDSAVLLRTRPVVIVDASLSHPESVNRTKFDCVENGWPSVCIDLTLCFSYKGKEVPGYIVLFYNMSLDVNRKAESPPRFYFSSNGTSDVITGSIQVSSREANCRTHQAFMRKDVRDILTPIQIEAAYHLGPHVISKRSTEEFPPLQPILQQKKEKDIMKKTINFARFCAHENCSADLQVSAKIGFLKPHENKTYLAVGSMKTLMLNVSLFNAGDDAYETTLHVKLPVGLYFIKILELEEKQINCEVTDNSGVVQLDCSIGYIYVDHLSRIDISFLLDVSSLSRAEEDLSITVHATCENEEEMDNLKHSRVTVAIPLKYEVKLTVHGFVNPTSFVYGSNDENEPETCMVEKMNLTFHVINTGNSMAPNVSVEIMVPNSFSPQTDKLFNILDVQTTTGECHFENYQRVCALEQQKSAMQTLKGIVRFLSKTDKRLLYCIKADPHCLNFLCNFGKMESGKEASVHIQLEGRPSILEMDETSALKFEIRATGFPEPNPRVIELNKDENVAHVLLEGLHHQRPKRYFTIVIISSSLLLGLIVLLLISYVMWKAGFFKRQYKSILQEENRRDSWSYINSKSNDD

Target: integrins haα4 and β1 (VLA-4) expressed on CHO cells (Homo sapiens, UniProt P05556+P13612)
Assay: In vitro Evaluation Test (1): binding of Eu3+-hVCAM-1 D1D7-IgG to CHO cells expressing integrins α4 and β1
Conditions: inhibition of Eu3+-hVCAM-1 D1D7-IgG binding to CHO cells expressing α4β1; Ki calculated from IC50

- pKi: 8.41
Structure (SMILES): CO[C@H]1C[C@@H](COC2CCC(C(=O)O)CC2)N(C(=O)Cc2ccc3nc(Nc4ccccc4C)oc3c2)C1 (single isomer, unassigned) [20 (Isomer A)]
